Read-outs that look alike come from different tables or passages of the source.

The text below walks through data of US10014546B2 (priority 2012, dated 2018).

With iron bis-lactate [Fe^III/II(lactate)2], the “E1/2, V vs. RHE” value (pH 2.6) is recorded as “+0.45 V vs. RHE”.

For the substance “sodium potassium titanium (IV) biscatecholate monogluconate [Ti(catecholate)2(gluconate)^2−/3−]”, under “pH 9”, the “E1/2, V vs. RHE” value is −0.60 V vs. RHE.
